For one experiment, the target named is hS1P1/CHO cells (Homo sapiens (Human), UniProt P21453). As to the kind of experiment: hS1P1 ERK phosphorylation (S1P1 pERK). The note with it: read-out: S1P1 pERK; phosphate examples.
The target in experiment [1] is S1P3 (membranes prepared from EDG3-Gal5-bla HEK293T cells) (Homo sapiens (Human), UniProt Q99500). Nature of the experiment: Receptor [35S] GTPγS binding assay (S1P3 GTPγS). To be noted: read-out: S1P3 GTPγS; phosphate examples. On the technique in general: GTPγS resists hydrolysis and so accumulates on activated G proteins.
A further experiment deals with human S1P1 (Homo sapiens (Human), UniProt P21453). Nature of the experiment: S1P1 binding assay (33P-S1P radioligand competition, CHO cell membranes). To be noted: read-out: S1P1 Binding; phosphate examples. For orientation: In a radioligand displacement assay an active substance lowers the binding of a labelled ligand.
For experiment [2], the target named is S1P1 (membranes prepared from S1P1/CHO cells) (Homo sapiens (Human), UniProt P21453). As to the kind of experiment: Receptor [35S] GTPγS binding assay (S1P1 GTPγS). It counts as biochemical. To be noted: read-out: S1P1 GTPγS; phosphate examples.

Protein sequences, listed by entry. Tags and fused reporters are not part of them.
UniProt P21453, whole entry: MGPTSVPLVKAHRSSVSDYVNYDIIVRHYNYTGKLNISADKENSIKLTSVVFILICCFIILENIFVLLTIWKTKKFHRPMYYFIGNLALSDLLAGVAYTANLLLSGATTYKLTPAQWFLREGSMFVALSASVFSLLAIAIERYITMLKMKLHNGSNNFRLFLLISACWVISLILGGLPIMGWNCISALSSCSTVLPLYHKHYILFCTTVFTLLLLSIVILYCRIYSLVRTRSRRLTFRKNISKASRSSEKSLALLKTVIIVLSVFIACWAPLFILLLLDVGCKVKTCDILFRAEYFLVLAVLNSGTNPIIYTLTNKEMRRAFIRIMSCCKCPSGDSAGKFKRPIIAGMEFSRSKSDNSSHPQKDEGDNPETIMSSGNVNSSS
UniProt Q99500, whole entry: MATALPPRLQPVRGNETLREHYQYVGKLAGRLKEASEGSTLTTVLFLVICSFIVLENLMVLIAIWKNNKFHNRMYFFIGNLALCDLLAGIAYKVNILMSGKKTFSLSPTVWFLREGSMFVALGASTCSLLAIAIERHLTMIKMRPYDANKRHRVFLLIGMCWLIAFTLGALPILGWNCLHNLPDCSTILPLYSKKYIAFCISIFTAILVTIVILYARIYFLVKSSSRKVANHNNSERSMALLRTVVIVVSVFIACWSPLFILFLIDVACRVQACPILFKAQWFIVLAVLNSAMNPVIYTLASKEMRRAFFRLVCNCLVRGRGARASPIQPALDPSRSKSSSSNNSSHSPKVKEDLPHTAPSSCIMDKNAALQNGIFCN

Bounds are passed on as bounds.

On to `[2H]C1([2H])C(/C=C/CCCC)=Cc2ccc([C@H]3CC[C@](N)(COP(=O)(O)O)C3)cc2C1([2H])[2H]`, for which the EC50 on hS1P1/CHO cells is 10 to 100 nM; in experiment [1] it was more than 625 nM; in experiment [2], 100 to 1000 nM. For the same compound, on human S1P1, the IC50 was 10 to 100 nM.

(Values after patent US9522888B2, “Substituted bicyclic compounds” (BRISTOL-MYERS SQUIBB COMPANY, priority 2014, dated 2016).)
